Test [1] concerns the target Kappa-type opioid receptor (Homo sapiens, UniProt P41145). As to the kind of experiment: Binding Assay: Kippa-Opioid Receptor Binding Assay Procedures: Membranes from recombinant HEK-293 cells expressing the human kippa opioid receptor (kippa) (cloned in house) were prepared by lysing cells in ice cold hypotonic buffer (2.5 mM MgCl2, 50 mM HEPES, pH 7.4) (10 mL/10 cm dish) followed by homogenization with a tissue grinder/Teflon pestle. Membranes were collected by centrifugation at 30,. The note with it: sf9.

By UniProt entry, the sequences of proteins in these tests, tags left out.
UniProt P41145, whole entry: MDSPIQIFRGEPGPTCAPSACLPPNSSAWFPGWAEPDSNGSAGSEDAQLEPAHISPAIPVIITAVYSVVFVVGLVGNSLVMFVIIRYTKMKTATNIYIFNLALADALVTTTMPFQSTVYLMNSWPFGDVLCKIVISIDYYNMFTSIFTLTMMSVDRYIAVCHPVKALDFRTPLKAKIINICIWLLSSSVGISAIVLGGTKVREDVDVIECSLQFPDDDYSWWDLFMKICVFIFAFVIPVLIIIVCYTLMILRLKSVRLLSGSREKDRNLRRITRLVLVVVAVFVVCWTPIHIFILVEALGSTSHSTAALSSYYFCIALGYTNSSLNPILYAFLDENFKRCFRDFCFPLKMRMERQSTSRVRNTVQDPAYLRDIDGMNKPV
UniProt P41143, whole entry: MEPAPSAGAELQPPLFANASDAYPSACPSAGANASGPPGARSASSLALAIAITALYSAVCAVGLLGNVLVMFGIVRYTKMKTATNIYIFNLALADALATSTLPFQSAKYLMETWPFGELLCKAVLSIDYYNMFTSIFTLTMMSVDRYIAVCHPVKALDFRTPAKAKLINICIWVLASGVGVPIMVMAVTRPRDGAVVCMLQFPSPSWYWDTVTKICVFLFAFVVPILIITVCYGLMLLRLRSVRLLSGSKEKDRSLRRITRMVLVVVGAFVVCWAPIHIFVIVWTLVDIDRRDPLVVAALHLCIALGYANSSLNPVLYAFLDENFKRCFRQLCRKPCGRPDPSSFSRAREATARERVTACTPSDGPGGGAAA
UniProt P35372, whole entry: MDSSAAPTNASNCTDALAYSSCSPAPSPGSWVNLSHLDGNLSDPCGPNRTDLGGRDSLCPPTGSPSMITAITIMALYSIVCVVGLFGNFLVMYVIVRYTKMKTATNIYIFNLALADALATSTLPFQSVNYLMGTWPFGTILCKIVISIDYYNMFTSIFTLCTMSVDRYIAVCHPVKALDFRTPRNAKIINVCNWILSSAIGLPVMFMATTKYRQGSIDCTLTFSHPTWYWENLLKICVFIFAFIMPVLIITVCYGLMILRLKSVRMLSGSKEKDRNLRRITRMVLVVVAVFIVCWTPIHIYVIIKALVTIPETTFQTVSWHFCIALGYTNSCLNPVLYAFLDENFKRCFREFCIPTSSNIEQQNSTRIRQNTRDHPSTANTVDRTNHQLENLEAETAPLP

Test [2] addresses Delta-type opioid receptor (Homo sapiens, UniProt P41143). As to the kind of experiment: Binding Assay: Delta-Opioid Receptor Binding Assay Procedures: delta-opioid Receptor Binding Assay Procedures were conducted as follows. Radioligand dose-displacement assays used 0.3 nM [3H]-Naltrindole (Perkin Elmer, Shelton, Conn.; 33.0 Ci/mmole) with 5 ug membrane protein (Perkin Elmer, Shelton, Conn.) in a final volume of 500 ul binding buffer (5 mM MgCl2, 5% DMSO, 50 mM Trizma base, pH 7.4).

The next test deals with Mu-type opioid receptor (Homo sapiens, UniProt P35372). In words: Binding Assay: u-Opioid Receptor Binding Assay Procedures: Radioligand dose-displacement binding assays for u-opioid receptors used 0.3 nM [3H]-diprenorphine (Perkin Elmer, Shelton, Conn.), with […] membrane protein/well in a final volume of 500 ul binding buffer (10 mM MgCl2, 1 mM EDTA, 5% DMSO, 50 mM HEPES, pH 7.4). Reactions were carried out in the absence or presence of increasing concentrati.

Take `COC12CC[C@@]3(C[C@@H]1CNC(=O)Nc1ccccc1)[C@H]1Cc4ccc(O)c5c4[C@@]3(CCN1CC1CC1)[C@H]2O5`: the Ki (as a rule, the equilibrium dissociation constant of an inhibitor or competing ligand from its target) in test [1] is 0.08 nM. With `CO[C@]12CC[C@@]3(C[C@@H]1CNC(=O)[C@@H](N)Cc1ccc(O)cc1)[C@H]1Cc4ccc(O)c5c4[C@@]3(CCN1CC1CC1)[C@H]2O5`, the inhibitory constant (Ki) in test [1] amounted to 0.13 nM. Consider `CO[C@]12CC[C@@]3(C[C@@H]1CNC(=O)[C@@H](N)Cc1c[nH]cn1)[C@H]1Cc4ccc(O)c5c4[C@@]3(CCN1CC1CC1)[C@H]2O5`, for which the inhibition constant Ki in test [2] was determined as 58.8 nM. In the case of `CO[C@]12CC[C@@]3(C[C@@H]1CNS(=O)(=O)c1ccc(C)cc1)[C@H]1Cc4ccc(O)c5c4[C@@]3(CCN1CC1CC1)[C@H]2O5`, the inhibitory constant (Ki) in test [1] was determined as 0.07 nM. On the same count and under the same terms, then `CO[C@]12CC[C@@]3(C[C@@H]1CNS(=O)(=O)c1ccccc1)[C@H]1Cc4ccc(O)c5c4[C@@]3(CCN1CC1CC1)[C@H]2O5`, with 0.08 nM; and `COC12CC[C@@]3(C[C@@H]1CNC(=O)CCCCC(N)=O)[C@H]1Cc4ccc(O)c5c4[C@@]3(CCN1CC1CC1)[C@H]2O5`, with 0.47 nM.

In the case of `CO[C@]12CC[C@@]3(C[C@@H]1CNC(=O)CN)[C@H]1Cc4ccc(O)c5c4[C@@]3(CCN1CC1CC1)[C@H]2O5`, the Ki in test [1] turned out to be 0.07 nM; in test [2], 16.2 nM. Take `CO[C@]12CC[C@@]3(C[C@@H]1CNC(=O)[C@@H](N)CC(=O)O)[C@H]1Cc4ccc(O)c5c4[C@@]3(CCN1CC1CC1)[C@H]2O5`: the inhibition constant (Ki) worked out at 3.05 nM in test [1], 60.4 nM in test [2] and 4.89 nM on Mu-type opioid receptor. The compound `CO[C@]12CC[C@@]3(C[C@@H]1CNC(=O)[C@H](CO)NC(C)=O)[C@H]1Cc4ccc(O)c5c4[C@@]3(CCN1CC1CC1)[C@H]2O5` had a Ki in test [2] of 20.3 nM.
